In data set [1] the test system is Molm-13. As to the kind of experiment: MTT assay, Molm-13 leukemia cell line. The format is cell-based. The conditions noted are these: mean. (Tetrazolium dyes change colour on reduction, which living cells bring about.)
The subject of data set [2] is NB4. As to the kind of experiment: MTT assay, NB4 leukemia cell line. The format is cell-based. The conditions noted are these: mean.
In data set [3] the test system is 4T1. In words: MTT assay, 4T1 breast cancer cell line. Format: cell-based. The conditions noted are these: mean.
Data set [4] has as its system HeLa. In words: MTT assay, HeLa cervix cell line. The format is cell-based, human. Conditions: mean.
In data set [5] the test system is COS-7. In words: MTT assay, COS-7 normal kidney cell line. Conditions: mean. Format: cell-based, African green monkey.
For data set [6], the system named is PBMC. In words: MTT assay, PBMC normal cells. Format: cell-based, rat. The conditions noted are these: mean.
Data set [7] can be described thus: Pharmaceutic kinetics, blood arsenic content by ICP-MS. The conditions noted are these: 1.5 mg/kg intravenously once, up to 48 h.
Where [8] appears, read: read-out: IC50 COS-7 24 h, 24 h.
[9] abbreviates: read-out: IC50 COS-7 48 h, 48 h.

A word on the pIC50: it is the negative decadic logarithm of the IC50, by convention in mol/L.

pIC50: −log10 of the molar value. Where two headings read alike, the source gives them in different places.

As to `Nc1ccc([As]2SCCCS2)cc1`, the pIC50 in data set [1] (read-out: IC50 Molm 24 h, 24 h) was 6.22; in data set [1] (read-out: IC50 Molm 48 h, 48 h) it was 6.28; in data set [2] (read-out: IC50 NB4 24 h, 24 h), 5.82; in data set [2] (read-out: IC50 NB4 48 h, 48 h), 5.92; in data set [3] (read-out: IC50 4T1 24 h, 24 h), 5.78; in data set [3] (read-out: IC50 4T1 48 h, 48 h), 5.72. Also, the pIC50 in data set [4] (read-out: IC50 HeLa 24 h, 24 h) was 6.00; in data set [4] (read-out: IC50 HeLa 48 h, 48 h) it was 6.15; in data set [5] (setting [8]), 5.21; in data set [5] (setting [9]), 5.49; in data set [6] (read-out: IC50 PBMC 24 h, 24 h) it was 5.34; in data set [6] (read-out: IC50 PBMC 48 h, 48 h), 5.40. Besides, the “blood arsenic content over time” value in data set [7] is listed as “eliminated rapidly”.
Take `Nc1ccccc1[As]1SCCCS1`: the pIC50 in data set [1] (read-out: IC50 Molm 24 h, 24 h) is 6.35; in data set [1] (read-out: IC50 Molm 48 h, 48 h) it was 6.39; in data set [2] (read-out: IC50 NB4 24 h, 24 h) it was 6.40; in data set [2] (read-out: IC50 NB4 48 h, 48 h) it was 6.52; in data set [3] (read-out: IC50 4T1 24 h, 24 h), 6.06; in data set [3] (read-out: IC50 4T1 48 h, 48 h), 6.08. Also, the pIC50 in data set [4] (read-out: IC50 HeLa 24 h, 24 h) is 6.52; in data set [4] (read-out: IC50 HeLa 48 h, 48 h) it was 6.60; in data set [5] (setting [8]), 5.76; in data set [5] (setting [9]), 6.09; in data set [6] (read-out: IC50 PBMC 24 h, 24 h), 5.46; in data set [6] (read-out: IC50 PBMC 48 h, 48 h), 5.55.

The record behind these values is PMC9266561, “1,3-Benzodioxole Derivatives Improve the Anti-Tumor Efficiency of Arsenicals” (International Journal of Molecular Sciences, 2022).
